Results as given in PubChem BioAssay (EPA / NIEHS).
This is a selection; strong and weak results do not stand in their true shares. Inconclusive results are not listed. The source made the active and inactive calls. The calls were made as follows: active = hit-call score of the fitted dose curve at least 0.9, where 1 is the maximum; inconclusive = response in the unintended direction; inactive = score below 0.9.

What was measured:
[1] = Tanguay_ZF_120hpf_EYE_legacy: (Legacy) Oregon State University Tanguay Lab 120 Hour Post-fertilization zebrafish Assay for Eye Malformation (AID 2283636);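 also: binary presence or absence of eye malformation scored by brightfield in 120 hpf larvae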
How it was run: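 Static waterborne exposure of dechorionated zebrafish embryos (strain Tropical 5D), 6 to 120 hpf, sealed plates at 28C, 0.64% DMSO vehicle. Eye malformation is scored as a binary endpoint, with gain of signal analysed relative to DMSO.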

[2] = Tanguay_ZF_120hpf_SNOU_legacy: (Legacy) Oregon State University Tanguay Lab 120 Hour Post-fertilization zebrafish Assay for Snout Malformation (AID 2283637)
How it was run: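 Dechorionated zebrafish, individually housed from 6 hpf in covered, sealed wells at 28C with 0.64% DMSO vehicle, were examined at 120 hpf for snout malformation. Responses were binary and analysed positive-direction relative to DMSO.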

[3] = Tanguay_ZF_120hpf_JAW_legacy: (Legacy) Oregon State University Tanguay Lab 120 Hour Post-fertilization zebrafish Assay for Jaw Malformation (AID 2283638)
How it was run: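 Binary jaw-malformation calls at 120 hpf by brightfield imaging; DMSO (0.64% v/v) = baseline. Embryos: 5D wild-type, pronase-dechorionated, one per well from 6 hpf, static exposure, 28C, sealed, dark.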

[4] = Tanguay_ZF_120hpf_OTIC_legacy: (Legacy) Oregon State University Tanguay Lab 120 Hour Post-fertilization zebrafish Assay for Otic Vesicle Malformation (AID 2283639)
How it was run: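 Brightfield scoring at 120 hpf, binary present/absent; DMSO negative control, 5uM trimethyltin chloride positive control. Static exposure at 28C, final DMSO 0.64% (vol/vol). Dead embryos not scored for malformation.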

[5] = Tanguay_ZF_120hpf_PE_legacy: (Legacy) Oregon State University Tanguay Lab 120 Hour Post-fertilization zebrafish Assay for Pericardial Edema (AID 2283640)
How it was run: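 Static waterborne exposure, 5D wild-type embryos, 28C, to 120 hpf; final DMSO 0.64% (vol/vol). Binary PE call at 120 hpf by brightfield; fitted upward vs DMSO baseline. 5uM trimethyltin chloride as positive control.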

[6] = Tanguay_ZF_120hpf_BRAI_legacy: (Legacy) Oregon State University Tanguay Lab 120 Hour Post-fertilization zebrafish Assay for Brain Malformation (AID 2283641)
How it was run: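 Read-out: binary brain morphology call at 120 hpf (brightfield), fitted in gain-of-signal direction vs DMSO. Wild-type Tropical 5D embryos, static exposure, 28C, 0.64% DMSO final; 5uM trimethyltin chloride as positive control.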

[7] = Tanguay_ZF_120hpf_SOMI_legacy: (Legacy) Oregon State University Tanguay Lab 120 Hour Post-fertilization zebrafish Assay for Somite Malformation (AID 2283647)
How it was run: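 Binary brightfield scoring of somite defects at 120 hpf in 5D wild-type larvae; one dechorionated embryo per well, static exposure from 6 hpf, 28C, sealed and dark. Final DMSO 0.64%; trimethyltin chloride 5uM positive control.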

[8] = Tanguay_ZF_120hpf_PFIN_legacy: (Legacy) Oregon State University Tanguay Lab 120 Hour Post-fertilization zebrafish Assay for Pectoral Fin Malformation (AID 2283648);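 also: each larva judged yes or no for fin defect by brightfield with dead larvae skipped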
How it was run: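 Scoring of pectoral fin malformation was binary, made at 120 hpf on larvae exposed statically from 6 hpf after enzymatic chorion removal. Activity was fitted upward relative to DMSO controls at 0.64% (vol/vol).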

[9] = Tanguay_ZF_120hpf_CFIN_legacy: (Legacy) Oregon State University Tanguay Lab 120 Hour Post-fertilization zebrafish Assay for Caudal Fin Malformation (AID 2283649)
How it was run: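 Dechorionated 5D wild-type zebrafish, static exposure 6–120 hpf, 28C, sealed and dark, 0.64% v/v DMSO final. Binary fin-malformation call at 120 hpf, brightfield; gain of signal vs DMSO baseline.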

[10] = Tanguay_ZF_120hpf_AXIS_legacy: (Legacy) Oregon State University Tanguay Lab 120 Hour Post-fertilization zebrafish Assay for Body Axis Malformation (AID 2283635)
How it was run: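 Embryos: 5D wild-type, pronase-dechorionated 4 hpf; static exposure 6–120 hpf, 28C, sealed, dark, 1 embryo/well, 0.64% DMSO. 120 hpf axis malformation scored present/absent; dead embryos excluded. Analysed as gain of signal vs DMSO.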

Measured: outcome

Cc1ccc([N+](=O)[O-])cc1[N+](=O)[O-]
inactive: [1] | [2] | [3] | [4] | [5] | [6] | [7] | [8] | [9]

Cc1c([N+](=O)[O-])cccc1[N+](=O)[O-]
inactive: [10] | [1] | [2] | [5] | [6] | [7] | [8] | [9]

O=[N+]([O-])c1cccc([N+](=O)[O-])c1
inactive: [10] | [1] | [2] | [3] | [4] | [5] | [6] | [7] | [8] | [9]

Cc1cccc([N+](=O)[O-])c1[N+](=O)[O-]
inactive: [10] | [1] | [2] | [3] | [4] | [5] | [6] | [7] | [8] | [9]

CC(C)OP(C)(=O)OC(C)C
inactive: [10] | [1] | [2] | [3] | [4] | [5] | [6] | [7] | [9]
